Results on eleven compounds are retold here after patent US20070184519A1, “Peptides, polypeptides, and proteins of reduced immunogenicity and methods for their production” (priority 2003, published 2007).

Chains of the proteins cited; added tags and fusions are not shown. Residues count along the entry.
UniProt P01920, 33-261: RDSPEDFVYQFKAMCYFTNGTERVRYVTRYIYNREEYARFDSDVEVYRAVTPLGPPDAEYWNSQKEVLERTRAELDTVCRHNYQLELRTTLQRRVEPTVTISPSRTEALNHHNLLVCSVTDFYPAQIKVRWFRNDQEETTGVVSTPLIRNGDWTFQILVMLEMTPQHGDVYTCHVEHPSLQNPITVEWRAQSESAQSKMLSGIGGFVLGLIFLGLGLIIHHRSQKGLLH

Molecules are shown by their SMILES. Read-outs that look alike come from different tables or passages of the source.

One assay has as its target T1, DRB1*0802 (Homo sapiens, UniProt P01903+P01911, A100R/A103L/A169T/F76Y/H45Y/I96F/K41T/L162R/M171V/P40S/Q125H/Q178H/Q39Y/Q99D/R218S/R42G/S66Y/V115G/W38E).
T1 construct: Epstein-Barr virus (EBV) transformed homozygous cell lines were used as sources of human HLA Class II molecules; endogenous in cells; host or cells: OLL (EBV-transformed homozygous B cell line)
Put plainly: Class II peptide-binding assay DRB1*0802 (DR8w2).

The next assay has as its target DRB1*0901 (Homo sapiens, UniProt P01903+P01911, A100R/A103E/D57H/D86V/F55Y/F60I/F76Y/I96F/K127E/L162R/M171V/P40D/Q125H/Q99R/R33Q/R42F/S133A/S66N/T210M/V115G/W38K/Y107V/Y59G/Y89S). Put plainly: Class II peptide-binding assay DRB1*0901 (DR9).
Another assay addresses T2, DRB1*0405 (Homo sapiens, UniProt P01903+P01911, A100R/A169T/D86S/F76Y/I96L/K127E/L162R/M171V/N62H/P40V/Q125Y/R42H/S133A/S149N/S66Y/V115G/V209L/W38E).
T2 construct: Epstein-Barr virus (EBV) transformed homozygous cell lines were used as sources of human HLA Class II molecules; endogenous in cells; host or cells: KT3 (EBV-transformed homozygous B cell line)
Put plainly: Class II peptide-binding assay DRB1*0405 (DR4w15).

Another assay concerns the target T3, DRB1*0401 (Homo sapiens, UniProt P01903+P01911, A100K/A169T/F76Y/I96L/K127E/L162R/M171V/N62H/P40V/Q125Y/R42H/S133A/S149N/S66Y/V115G/V209L/W38E).
T3 construct: Epstein-Barr virus (EBV) transformed homozygous cell lines were used as sources of human HLA Class II molecules; endogenous in cells; host or cells: PREISS (EBV-transformed homozygous B cell line)
The assay is described as follows: Class II peptide-binding assay DRB1*0401 (DR4w4).

The target of the next assay is DQB1*0301 (Homo sapiens, UniProt P01909+P01920). Put plainly: Class II peptide-binding assay DQB1*0301. The following applies: inhibition of radiolabeled probe binding; — read as no appreciable binding.
The target of a further assay is T4, DRB1*0101 (Homo sapiens, UniProt P01903+P01911, A100R/D57E/F55L/F60I/F76Y/I96L/L162R/M171V/P40L/Q125E/R42F/V115G/Y59C).
T4 construct: Epstein-Barr virus (EBV) transformed homozygous cell lines were used as sources of human HLA Class II molecules; endogenous in cells; host or cells: LG2 (EBV-transformed homozygous B cell line)
Put plainly: Class II peptide-binding assay DRB1*0101 (DR1).

Another assay concerns the target T5, DRB1*1501 (Homo sapiens, UniProt P01903+P01911).
T5 construct: expressed in transfected cells; host or cells: transfected fibroblasts L466.1
Put plainly: Class II peptide-binding assay DRB1*1501 (DR2w2b).

The target in a further assay is T6, DRB1*0701 (Homo sapiens, UniProt P01903+P01911, A100R/A102G/A103Q/D57E/D86V/E43K/F76Y/K127E/L162R/M171V/P40G/Q125H/Q99D/R33Q/R42Y/R54Q/S133A/S66F/T210M/V115G/Y107V/Y59L/Y89S).
T6 construct: Epstein-Barr virus (EBV) transformed homozygous cell lines were used as sources of human HLA Class II molecules; endogenous in cells; host or cells: PITOUT (EBV-transformed homozygous B cell line)
Put plainly: Class II peptide-binding assay DRB1*0701 (DR7). The following applies: IFNb 15-mer peptides, Table 5D.

For a further assay, the target named is T7, DRB1*1101 (Homo sapiens, UniProt P01903+P01911, A100R/A169T/A87E/I96F/K41T/L162R/M171V/P40S/Q125H/Q178H/Q39Y/Q99D/R42S/S66Y/T262R/V115G/W38E).
T7 construct: Epstein-Barr virus (EBV) transformed homozygous cell lines were used as sources of human HLA Class II molecules; endogenous in cells; host or cells: SWEIG (EBV-transformed homozygous B cell line)
It is filed as binding.

A further assay addresses T8, DRB1*0404 (Homo sapiens, UniProt P01903+P01911, A100R/A169T/F76Y/I96L/K127E/L162R/M171V/N62H/P40V/Q125Y/R42H/S133A/S149N/S66Y/V209L/W38E).
T8 construct: Epstein-Barr virus (EBV) transformed homozygous cell lines were used as sources of human HLA Class II molecules; endogenous in cells; host or cells: BIN40 (EBV-transformed homozygous B cell line)
Put plainly: Class II peptide-binding assay DRB1*0404 (DR4w14). The following applies: inhibition of radiolabeled probe binding; — read as no appreciable binding.

The next assay addresses T9, DRB1*1302 (Homo sapiens, UniProt P01903+P01911, A100E/A169T/K41T/L162R/M171V/P40S/Q125H/Q178H/Q39Y/Q99D/R42S/S66N/T262R/V115G/W38E/Y61H).
T9 construct: Epstein-Barr virus (EBV) transformed homozygous cell lines were used as sources of human HLA Class II molecules; endogenous in cells; host or cells: HO301 / H0301 (EBV-transformed homozygous B cell line)
The assay is described as follows: Class II peptide-binding assay DRB1*1302 (DR6w19).

The mark [1] stands for this setting: inhibition of radiolabeled probe binding, — read as no appreciable binding.

With `C[C@H](NC(=O)[C@H](CC(=O)O)NC(=O)[C@H](CC(=O)O)NC(=O)[C@H](CC(N)=O)NC(=O)[C@H](Cc1c[nH]cn1)NC(=O)[C@H](CO)NC(=O)[C@H](CC(N)=O)NC(=O)[C@@H](NC(=O)[C@H](CC(=O)O)NC(=O)[C@H](Cc1ccccc1)NC(=O)[C@H](CCCCN)NC(=O)[C@H](CO)NC(=O)[C@H](Cc1ccc(O)cc1)NC(=O)[C@@H](NC(=O)[C@@H](N)CCC(N)=O)[C@@H](C)O)[C@@H](C)O)C(=O)O`, the IC50 (as a rule, the point on the concentration scale where inhibition reaches its midpoint) on DRB1*0802 (setting [1]) was 3.58 µM.

On DRB1*0901 (IFNb 15-mer peptides, Table 5D), `CC[C@H](C)[C@H](NC(=O)[C@H](CCC(=O)O)NC(=O)[C@@H](NC(=O)[C@H](CCCNC(=N)N)NC(=O)[C@@H](NC(=O)[C@@H](NC(=O)[C@@H](NC(=O)[C@H](Cc1c[nH]c2ccccc12)NC(=O)[C@H](C)NC(=O)[C@H](CS)NC(=O)[C@H](Cc1c[nH]cn1)NC(=O)[C@H](CO)NC(=O)[C@H](CC(=O)O)NC(=O)[C@H](CCC(=O)O)NC(=O)[C@@H](N)CCCCN)[C@@H](C)O)[C@@H](C)CC)C(C)C)C(C)C)C(=O)O` gave an IC50 of 1.94 µM.

In the case of `CC[C@H](C)[C@H](NC(=O)[C@@H](N)CO)C(=O)N1CCC[C@H]1C(=O)N[C@H](C(=O)N1CCC[C@H]1C(=O)N[C@@H](CO)C(=O)N[C@@H](CC(N)=O)C(=O)N[C@@H](CCCNC(=N)N)C(=O)N[C@@H](CCC(=O)O)C(=O)N[C@@H](CCC(=O)O)C(=O)N[C@H](C(=O)N[C@@H](CCC(N)=O)C(=O)N[C@@H](CCC(N)=O)C(=O)N[C@@H](CCCCN)C(=O)N[C@@H](CO)C(=O)O)[C@@H](C)O)[C@@H](C)O`, the IC50 was 1.75 µM at DRB1*0405 (setting [1]) and 17.9 µM at DRB1*0401 (setting [1]).

For `CC(C)C[C@H](NC(=O)[C@H](CCC(N)=O)NC(=O)[C@H](CC(C)C)NC(=O)[C@@H]1CCCN1C(=O)[C@H](CCC(=O)O)NC(=O)[C@H](Cc1c[nH]c2ccccc12)NC(=O)[C@@H]1CCCN1C(=O)[C@H](CCC(N)=O)NC(=O)[C@H](CO)NC(=O)[C@H](CO)NC(=O)[C@H](CC(N)=O)NC(=O)[C@@H](NC(=O)[C@@H](N)CC(C)C)C(C)C)C(=O)N[C@@H](Cc1c[nH]cn1)C(=O)N[C@H](C(=O)O)C(C)C`, the half-maximal inhibitory concentration (IC50) at DQB1*0301 worked out at 3.7 µM; at DRB1*0405 (setting [1]) it was 7.81 µM.

With `CC[C@H](C)[C@H](NC(=O)[C@H](CC(N)=O)NC(=O)[C@H](CCC(=O)O)NC(=O)[C@H](C)NC(=O)[C@H](CCC(=O)O)NC(=O)[C@H](CCCCN)NC(=O)[C@H](C)NC(=O)[C@H](CCC(=O)O)NC(=O)[C@H](CC(C)C)NC(=O)[C@@H](N)CC(C)C)C(=O)N[C@H](C(=O)N[C@H](C(=O)NCC(=O)N[C@@H](CS)C(=O)N[C@@H](C)C(=O)O)[C@@H](C)O)[C@@H](C)O`, the values for the IC50 at DRB1*0101 (setting [1]), on DRB1*0401 (setting [1]) and at DRB1*1501 (setting [1]) were 24.9 µM, 13.4 µM and 16800 nM, respectively.

`CC[C@H](C)[C@H](NC(=O)[C@H](C)NC(=O)[C@H](CCC(=O)O)NC(=O)[C@H](CCCCN)NC(=O)[C@H](CCC(N)=O)NC(=O)[C@H](C)NC(=O)CNC(=O)[C@H](CC(C)C)NC(=O)[C@H](C)N)C(=O)N[C@@H](CO)C(=O)N1CCC[C@H]1C(=O)N1CCC[C@H]1C(=O)N[C@@H](CC(=O)O)C(=O)N[C@@H](C)C(=O)N[C@@H](C)C(=O)O` yielded an IC50 at DRB1*0802 (setting [1]) of 4.73 µM.

Turning to `CC(C)C[C@H](NC(=O)[C@H](CCCCN)NC(=O)[C@H](CCC(=O)O)NC(=O)[C@H](CCC(=O)O)NC(=O)[C@H](CC(C)C)NC(=O)[C@@H](N)C(C)C)C(=O)N[C@@H](CCC(=O)O)C(=O)N[C@@H](CCCCN)C(=O)N[C@@H](CCC(=O)O)C(=O)N[C@@H](CC(=O)O)C(=O)N[C@@H](Cc1ccccc1)C(=O)N[C@H](C(=O)N[C@@H](CCCNC(=N)N)C(=O)NCC(=O)N[C@@H](CCCCN)C(=O)O)[C@@H](C)O`, the half-inhibitory concentration (IC50) is 12.2 µM at DRB1*0101 (IFNb 15-mer peptides, Table 5D); 4.61 µM on DRB1*0401 (IFNb 15-mer peptides, Table 5D); 9500 nM at DRB1*1501 (IFNb 15-mer peptides, Table 5D); 8.03 µM at DRB1*0701.

Consider `CC[C@H](C)[C@H](NC(=O)CNC(=O)[C@H](CCC(=O)O)NC(=O)[C@H](CCC(=O)O)NC(=O)[C@H](CC(C)C)NC(=O)[C@H](CC(=O)O)NC(=O)[C@H](CCCCN)NC(=O)[C@H](CC(C)C)NC(=O)[C@@H](N)CC(C)C)C(=O)N[C@@H](CCC(N)=O)C(=O)N[C@H](C(=O)N[C@@H](CC(C)C)C(=O)N[C@@H](CCSC)C(=O)NCC(=O)N[C@@H](CCCNC(=N)N)C(=O)O)[C@@H](C)O`, for which the IC50 came to 7.28 µM at DRB1*0101 (setting [1]); 13.7 µM at DRB1*1101 (setting [1]); 10.6 µM on DRB1*0405 (setting [1]); 7.31 µM on DRB1*0401 (setting [1]); 18900 nM at DRB1*1501 (setting [1]); 2.06 µM on DRB1*0404. The IC50 on DRB1*1302 (setting [1]) came out at 21.8 µM; on DRB1*0901 (setting [1]), 23.4 µM.

With `CC[C@H](C)[C@H](NC(=O)[C@H](CO)NC(=O)[C@H](C)NC(=O)[C@H](CO)NC(=O)[C@@H](NC(=O)[C@H](CCCCN)NC(=O)[C@H](CO)NC(=O)[C@@H]1CCCN1C(=O)[C@H](Cc1ccccc1)NC(=O)[C@H](C)NC(=O)[C@@H](NC(=O)[C@H](CO)NC(=O)[C@H](CCC(N)=O)NC(=O)[C@H](CS)NC(=O)[C@@H](NC(=O)[C@@H](NC(=O)[C@@H](N)Cc1c[nH]c2ccccc12)[C@@H](C)O)[C@@H](C)O)[C@@H](C)CC)[C@@H](C)O)C(=O)NCC(=O)N[C@@H](CO)C(=O)N[C@@H](CC(C)C)C(=O)O`, the IC50 at DRB1*0405 was 2.55 µM; on DRB1*0802, 3.05 µM; at DRB1*1501 it was 556 nM; at DRB1*0901, 1.72 µM.

Compound `CC[C@H](C)[C@H](NC(=O)[C@H](CCC(=O)O)NC(=O)[C@H](CCC(=O)O)NC(=O)[C@@H]1CCCN1)C(=O)N[C@@H](CCCCN)C(=O)N[C@@H](CCC(N)=O)C(=O)N[C@@H](CC(C)C)C(=O)N[C@@H](CCC(N)=O)C(=O)N[C@@H](CCC(N)=O)C(=O)N[C@@H](Cc1ccccc1)C(=O)N[C@@H](CCC(N)=O)C(=O)N[C@@H](CCCCN)C(=O)N[C@@H](CCC(=O)O)C(=O)N[C@@H](CC(=O)O)C(=O)N[C@@H](C)C(=O)O` gave an IC50 on DRB1*0802 (IFNb 15-mer peptides, Table 5D) of 3.87 µM.

For the compound `CC[C@H](C)[C@H](NC(=O)[C@H](CCC(=O)O)NC(=O)[C@H](CCC(=O)O)NC(=O)[C@@H]1CCCN1C(=O)[C@@H](NC(=O)[C@H](CC(=O)O)NC(=O)[C@H](Cc1ccccc1)NC(=O)[C@H](CC(N)=O)NC(=O)[C@H](CCCNC(=N)N)NC(=O)[C@H](CCCNC(=N)N)NC(=O)[C@H](CC(=O)O)NC(=O)[C@H](CCCCN)NC(=O)[C@H](CC(C)C)NC(=O)[C@@H](N)CS)[C@@H](C)CC)C(=O)N[C@@H](CCCCN)C(=O)O`, the IC50 amounted to 6.8 µM on DRB1*1101 (IFNb 15-mer peptides, Table 5D); 17.6 µM at DRB1*0405 (IFNb 15-mer peptides, Table 5D); 26.2 µM at DRB1*0401 (IFNb 15-mer peptides, Table 5D); 17100 nM at DRB1*1501 (IFNb 15-mer peptides, Table 5D); 27.7 µM at DRB1*0701; 17 µM on DRB1*1302 (IFNb 15-mer peptides, Table 5D).
